PMC8315004, “Discovery of Small-Molecule Inhibitors of SARS-CoV-2 Proteins Using a Computational and Experimental Pipeline” (Frontiers in Molecular Biosciences, 2021)

What follows are compounds tested against SARS-CoV-2 M^pro (Severe acute respiratory syndrome coronavirus 2, UniProt P0DTD1) (assay: biochemical). Settings: read-out: Normalized Percent FRET inhibition.

Structure (SMILES)	inhibition at 100 µM
Cc1nc(Nc2ncc(C(=O)Nc3c(C)cccc3Cl)s2)cc(N2CCN(CCO)CC2)n1 [Dasatinib]	-0.25%
CC(=O)N1CCN(c2ccc(OCC3COC(Cn4ccnc4)(c4ccc(Cl)cc4Cl)O3)cc2)CC1 (stereo not shown) [Ketoconazole]	-1.8%
CCC1=C[C@@H]2CN(C1)Cc1c([nH]c3ccccc13)[C@@](C(=O)OC)(c1cc3c(cc1OC)N(C)[C@H]1[C@@](O)(C(=O)OC)[C@H](OC(C)=O)[C@]4(CC)C=CCN5CC[C@]31[C@@H]54)C2 [Vinorelbine]	0.454%
COc1cc([C@@H]2c3cc4c(cc3[C@@H](O[C@@H]3O[C@@H]5CO[C@@H](c6cccs6)O[C@H]5[C@H](O)[C@H]3O)[C@H]3COC(=O)[C@H]23)OCO4)cc(OC)c1O [Teniposide]	3.02%
